From publication PMC11462627, “SAL0114: a novel deuterated dextromethorphan-bupropion combination with improved antidepressant efficacy and safety profile” (Frontiers in Pharmacology, 2024) come the findings set out here.

Amino acid sequences for entries named in this document (tags omitted).
UniProt Q99720, whole entry: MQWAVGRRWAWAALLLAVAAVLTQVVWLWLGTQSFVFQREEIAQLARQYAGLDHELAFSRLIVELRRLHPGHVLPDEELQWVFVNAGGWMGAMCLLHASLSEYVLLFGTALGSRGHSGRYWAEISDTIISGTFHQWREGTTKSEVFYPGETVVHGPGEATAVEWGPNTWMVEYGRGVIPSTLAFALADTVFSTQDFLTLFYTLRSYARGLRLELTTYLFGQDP

The target in the test is T1, Sigma-1 receptor (Homo sapiens, UniProt Q99720).
T1 construct: to the Sigma-1 receptor (Sigma-1R) of human-derived Jurkat cells; host or cells: Jurkat cells
Briefly: Sigma 1 receptor radioligand binding (3H-pentazocine, Jurkat cells). The following applies: 3H-pentazocine competition, human-derived Jurkat cells, mean, n = 2. The protocol: Competitive binding of the samples and ^3H-pentazocine to the Sigma-1 receptor (Sigma-1R) of human-derived Jurkat cells was assessed using a radioligand binding method.

The term Ki denotes the dissociation constant of the complex between target and ligand, obtained from inhibition or displacement. Read a low Ki as a stronger hold on the target. In turn, deuterated dextromethorphan [deDM] yielded a Ki of 1.72 µM.
